Measurements: PubChem BioAssay AID1920062 (Sanford-Burnham Center for Chemical Genomics, 2024)
Only a part is listed here, and it is no random draw. Some tests of the compounds listed are not included; inactive here does not mean inactive elsewhere. Activity calls are given as the source filed them.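 How the source made its calls: active means activation at 10 µM reaching about 35% in either raw or pattern-adjusted values (limit read from the data); inactive means the rest.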

Chains of the proteins cited; added tags and fusions are not shown.
UniProt P20594, whole entry: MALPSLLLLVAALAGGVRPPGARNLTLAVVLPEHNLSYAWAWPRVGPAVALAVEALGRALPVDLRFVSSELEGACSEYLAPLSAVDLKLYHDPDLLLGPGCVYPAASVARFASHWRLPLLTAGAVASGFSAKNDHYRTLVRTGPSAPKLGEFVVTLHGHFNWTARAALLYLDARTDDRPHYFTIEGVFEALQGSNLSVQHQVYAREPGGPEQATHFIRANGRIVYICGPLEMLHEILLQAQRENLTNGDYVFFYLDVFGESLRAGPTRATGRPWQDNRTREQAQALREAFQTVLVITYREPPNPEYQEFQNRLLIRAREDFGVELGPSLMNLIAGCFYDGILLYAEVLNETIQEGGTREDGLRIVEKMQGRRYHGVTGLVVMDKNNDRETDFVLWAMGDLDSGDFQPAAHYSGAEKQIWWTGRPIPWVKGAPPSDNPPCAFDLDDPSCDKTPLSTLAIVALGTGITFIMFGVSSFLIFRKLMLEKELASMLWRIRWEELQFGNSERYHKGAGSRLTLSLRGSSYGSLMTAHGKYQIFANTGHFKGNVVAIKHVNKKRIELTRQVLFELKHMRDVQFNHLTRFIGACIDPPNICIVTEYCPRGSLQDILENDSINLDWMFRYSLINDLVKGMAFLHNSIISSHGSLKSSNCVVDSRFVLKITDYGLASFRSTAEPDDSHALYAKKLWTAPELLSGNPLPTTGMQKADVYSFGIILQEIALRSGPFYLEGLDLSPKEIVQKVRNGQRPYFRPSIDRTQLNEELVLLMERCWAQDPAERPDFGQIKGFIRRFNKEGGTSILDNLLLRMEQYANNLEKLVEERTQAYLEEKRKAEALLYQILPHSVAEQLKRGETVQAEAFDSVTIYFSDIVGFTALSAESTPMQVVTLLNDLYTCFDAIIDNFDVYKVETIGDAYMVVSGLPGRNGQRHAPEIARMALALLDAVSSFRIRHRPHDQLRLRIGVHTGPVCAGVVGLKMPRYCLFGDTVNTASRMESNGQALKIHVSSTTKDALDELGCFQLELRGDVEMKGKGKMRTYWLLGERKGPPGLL

target: Atrial natriuretic peptide receptor 2 (Homo sapiens) (UniProt P20594); assay: GC-B stimulated cGMP production enhancers – HEK293 GC-B cells, cGMP TR-FRET, EC30 CNP, primary screen (AID 1920062); details: at 10 µM, stronger effect = higher value, 0% at EC30 CNP, 100% saturating CNP

Row | SMILES | activation
1 | Cc1ccc(C(=O)NCC2(N3CCCCC3)CCCCC2)cc1 | inactive: -1.77%
2 | COc1cc(SC)ccc1C(=O)NCC1(N(C)C)CCCCC1 | inactive: 1.89%
3 | CCN(CC)CC(C)C(C)OC(=O)C(O)(c1ccccc1)c1ccccc1 (stereo unspecified) | inactive: -1.55%
4 | CC(C)N1C(=O)CC2(CCN(CCOC(=O)C(O)(c3ccccc3)c3ccccc3)CC2)C1=O | inactive: 4.87%
5 | CN1[C@@H]2CC[C@H]1CC(OC(=O)C(O)(c1ccccc1)c1ccccc1)C2 (stereo partly specified) | inactive: 0.78%
6 | O=C(NCC1(N2CCCCC2)CCCCC1)c1cc([N+](=O)[O-])ccc1Cl | inactive: 5.9%
7 | COc1ccc(C(=O)NCC2(N(C)C)CCCCC2)cc1 | inactive: 1.17%
8 | O=C(NCC1(N2CCCCC2)CCCCC1)c1cccc(Br)c1 | inactive: 1.56%
9 | CCN1CCCC(OC(=O)C2(O)c3ccccc3C=Cc3ccccc32)C1 (stereo unspecified) | inactive: -18.1%
10 | Cc1cc(C(=O)NCC2(N3CCCCC3)CCCCC2)ccc1[N+](=O)[O-] | inactive: 1.35%
11 | O=C(NCC1(N2CCCCC2)CCCCC1)c1cc(F)c(F)cc1Cl | inactive: -2.47%
12 | C=CCN1CCN(CCOC(=O)C(O)(c2ccccc2)c2ccccc2)CC1 | inactive: -0.29%
13 | CN(C)c1ccc(C(=O)NCC2(N(C)C)CCCCC2)cc1 | inactive: -2.15%
14 | CN(C)C1CCCC1OC(=O)C(O)(c1ccccc1)c1ccccc1 (stereo unspecified) | inactive: -4.56%
15 | Cc1ccccc1C(=O)NCC1(N2CCCCC2)CCCCC1 | inactive: -0.28%
16 | O=C(NCC1(N2CCCCC2)CCCCC1)c1cccc(Cl)c1 | inactive: -0.18%
17 | COc1ccc(Cl)cc1C(=O)NCC1(N(C)C)CCCCC1 | inactive: -0.56%
18 | COc1cccc(C(=O)NCC2(N3CCCCC3)CCCCC2)c1 | inactive: 2.04%
19 | COc1cc(C(=O)NCC2(N(C)C)CCCCC2)c([N+](=O)[O-])cc1OC | inactive: 2.59%
20 | CN(C)C1(CNC(=O)c2ccc(Br)cc2)CCCCC1 | inactive: -2.51%
21 | O=C(OCCN1CCCC1)C(O)(c1ccccc1)c1ccccc1 | inactive: 1.78%
22 | CC(C)Oc1ccc(C(=O)NCC2(N(C)C)CCCCC2)cc1 | inactive: 1.6%
23 | CN(C)c1cccc(C(=O)NCC2(N(C)C)CCCCC2)c1 | inactive: 4.5%
24 | C=C(C)C#CC(O)(C(=O)OC1CCN(C)CC1)c1ccccc1 (stereo unspecified) | inactive: -1.08%
25 | COc1ccc(Br)c(C(=O)NCC2(N3CCCCC3)CCCCC2)c1 | inactive: -5.07%
26 | O=C(OC1CN2CCC1CC2)C(CO)(c1ccccc1)c1ccccc1 (stereo unspecified) | inactive: -3.21%
